Values quoted from earlier work in article PMC4186439, “Characterization of a novel brain barrier ex vivo insect-based P-glycoprotein screening model” (Pharmacology Research & Perspectives, 2014).

Test system: Pgp transporter
Conditions: locust ex vivo and mouse Pgp KO/WT; ref Andersson et al. [2013]; Doran et al. [2005]; cited from earlier work

SMILES: Cc1nc2n(c(=O)c1CCN1CCC(c3noc4cc(F)ccc34)CC1)CCCC2 [risperidone]
- Pgp transporter efflux liability: affected by Pgp transporter efflux
